Data from publication PMC11079024, “Identification of a family of species-selective complex I inhibitors as potential anthelmintics” (Nature Communications, 2024).

The chains behind the UniProt entries cited, without tags or fusion partners. Where a name states a change or a piece, a line headed by the entry shows the natural chain unless it says otherwise. Residues count along the entry.
UniProt P03887, whole entry: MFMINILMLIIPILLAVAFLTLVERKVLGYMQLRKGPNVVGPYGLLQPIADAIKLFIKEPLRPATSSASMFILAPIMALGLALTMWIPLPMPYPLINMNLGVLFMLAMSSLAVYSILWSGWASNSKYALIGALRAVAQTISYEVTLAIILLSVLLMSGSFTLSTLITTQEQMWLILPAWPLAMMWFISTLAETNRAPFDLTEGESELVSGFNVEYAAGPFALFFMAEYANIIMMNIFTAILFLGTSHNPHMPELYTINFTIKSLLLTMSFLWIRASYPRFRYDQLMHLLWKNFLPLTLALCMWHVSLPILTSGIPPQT
UniProt P17694, 34-463: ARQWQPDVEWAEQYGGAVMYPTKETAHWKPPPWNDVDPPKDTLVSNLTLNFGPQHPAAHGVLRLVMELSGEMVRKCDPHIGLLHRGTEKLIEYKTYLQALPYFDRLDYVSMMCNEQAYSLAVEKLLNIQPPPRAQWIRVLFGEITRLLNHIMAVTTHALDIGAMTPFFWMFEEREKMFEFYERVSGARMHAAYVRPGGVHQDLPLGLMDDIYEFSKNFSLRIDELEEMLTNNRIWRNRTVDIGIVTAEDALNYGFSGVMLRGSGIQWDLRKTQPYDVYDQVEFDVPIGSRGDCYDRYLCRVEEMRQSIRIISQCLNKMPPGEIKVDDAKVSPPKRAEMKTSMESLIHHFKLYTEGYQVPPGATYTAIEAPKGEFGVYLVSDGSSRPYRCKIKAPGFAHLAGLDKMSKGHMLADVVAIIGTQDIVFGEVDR
UniProt P42026, 38-216: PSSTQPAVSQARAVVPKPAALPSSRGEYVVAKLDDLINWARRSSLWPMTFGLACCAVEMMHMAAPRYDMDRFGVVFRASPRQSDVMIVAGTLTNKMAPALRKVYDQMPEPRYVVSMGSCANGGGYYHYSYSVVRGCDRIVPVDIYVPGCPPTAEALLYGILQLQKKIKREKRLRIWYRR
UniProt P24887: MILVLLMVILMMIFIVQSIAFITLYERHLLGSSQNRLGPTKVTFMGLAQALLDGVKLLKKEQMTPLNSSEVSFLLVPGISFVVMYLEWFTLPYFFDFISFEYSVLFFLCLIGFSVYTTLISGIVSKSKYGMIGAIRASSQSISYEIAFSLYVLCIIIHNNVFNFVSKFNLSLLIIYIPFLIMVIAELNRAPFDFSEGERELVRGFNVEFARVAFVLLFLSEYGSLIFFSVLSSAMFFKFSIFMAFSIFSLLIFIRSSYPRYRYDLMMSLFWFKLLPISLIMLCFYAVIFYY
UniProt Q93873, 31-482: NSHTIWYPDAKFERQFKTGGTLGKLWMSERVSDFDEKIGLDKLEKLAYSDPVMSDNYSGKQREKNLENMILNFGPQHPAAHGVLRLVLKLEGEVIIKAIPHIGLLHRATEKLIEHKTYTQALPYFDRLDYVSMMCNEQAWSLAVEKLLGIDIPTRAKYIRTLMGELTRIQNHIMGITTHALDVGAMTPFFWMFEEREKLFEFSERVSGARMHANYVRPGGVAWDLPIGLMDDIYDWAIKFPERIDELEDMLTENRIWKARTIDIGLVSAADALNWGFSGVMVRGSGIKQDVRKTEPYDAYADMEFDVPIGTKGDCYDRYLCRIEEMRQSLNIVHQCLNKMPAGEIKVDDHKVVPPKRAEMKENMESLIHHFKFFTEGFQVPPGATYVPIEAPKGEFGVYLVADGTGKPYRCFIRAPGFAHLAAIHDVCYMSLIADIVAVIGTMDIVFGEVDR
UniProt Q94360, 17-199: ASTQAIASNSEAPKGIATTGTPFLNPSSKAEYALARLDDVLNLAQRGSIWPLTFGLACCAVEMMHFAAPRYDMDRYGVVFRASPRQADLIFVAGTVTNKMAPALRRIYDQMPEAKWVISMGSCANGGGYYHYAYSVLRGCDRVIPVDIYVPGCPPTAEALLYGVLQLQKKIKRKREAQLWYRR
UniProt P03888: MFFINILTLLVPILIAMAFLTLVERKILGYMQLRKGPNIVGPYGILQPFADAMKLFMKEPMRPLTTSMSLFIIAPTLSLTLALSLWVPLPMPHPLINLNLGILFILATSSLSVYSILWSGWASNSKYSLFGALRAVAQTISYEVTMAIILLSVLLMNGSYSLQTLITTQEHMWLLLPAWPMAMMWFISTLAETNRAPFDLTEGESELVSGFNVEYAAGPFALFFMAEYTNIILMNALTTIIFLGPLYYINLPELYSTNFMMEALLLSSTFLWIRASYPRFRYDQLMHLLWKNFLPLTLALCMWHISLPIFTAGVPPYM
UniProt Q91WD5, 34-463: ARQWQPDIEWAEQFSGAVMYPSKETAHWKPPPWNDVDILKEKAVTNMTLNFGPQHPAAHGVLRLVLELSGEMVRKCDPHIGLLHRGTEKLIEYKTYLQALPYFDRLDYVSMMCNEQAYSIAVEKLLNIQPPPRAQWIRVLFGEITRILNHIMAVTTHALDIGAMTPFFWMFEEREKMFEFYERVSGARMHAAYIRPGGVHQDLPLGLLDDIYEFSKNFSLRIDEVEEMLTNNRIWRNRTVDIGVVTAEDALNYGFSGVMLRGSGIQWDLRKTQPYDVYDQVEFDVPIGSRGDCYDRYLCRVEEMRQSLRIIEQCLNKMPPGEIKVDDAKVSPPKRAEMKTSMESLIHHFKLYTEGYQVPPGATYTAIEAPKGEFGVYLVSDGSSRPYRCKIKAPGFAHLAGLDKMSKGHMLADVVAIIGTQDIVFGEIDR
UniProt Q9DC70, 36-224: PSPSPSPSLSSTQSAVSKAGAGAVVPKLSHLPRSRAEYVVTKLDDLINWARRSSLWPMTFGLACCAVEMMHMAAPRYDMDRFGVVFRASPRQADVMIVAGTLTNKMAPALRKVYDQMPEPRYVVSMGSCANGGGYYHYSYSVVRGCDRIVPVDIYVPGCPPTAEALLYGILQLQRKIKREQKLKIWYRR

Key:
[1] = target: B. taurus (heart) complex I (Bos taurus, UniProt P03887+P17694+P42026); type: biochemical; conditions: heart mitochondria
[2] = target: C. elegans (N2) complex I (NADH:ubiquinone oxidoreductase) (Caenorhabditis elegans, UniProt P24887+Q93873+Q94360); assay: biochemical; type: biochemical; conditions: for percent in vitro complex I activity relative to solvent control, single replicates: wild-type C. elegans, individual Rep1-Rep4; for percent (%) in vitro complex I activity relative to solvent control: wild-type C. elegans mitochondria, single replicate
L1 wild-type C. elegans = conditions: […], relative to DMSO controls, single biological replicate
[3] = target: M. musculus (heart) complex I (Mus musculus, UniProt P03888+Q91WD5+Q9DC70); type: biochemical; conditions: mouse, heart mitochondria
[4] = 50 μM, worm motility 3 hours after the removal of KCN (endpoint)
[5] = 50 μM, worm motility 3 hours after removal of KCN
[6] = 50 μM compound, worm motility 3 hours after removal of KCN

## Cc1nc2ccccc2n1Cc1ccc(Br)cc1 [Compound 5567167]
[1]
  B. taurus: C. elegans IC50 Fold Change (Complex I IC50 ~Fold Change): 6.5
  Complex I IC50 ~Fold Change: 6.5
  IC50 Fold change: 6.50
[2]; 0.0001 µM
  percent in vitro complex I activity relative to solvent control, single replicates: 88.215% and 85.236% and 76.019%
[2]; 0.0005 µM
  percent in vitro complex I activity relative to solvent control, single replicates: 93.838% and 79.218% and 84.363%
[2]; 0.001 µM
  percent in vitro complex I activity relative to solvent control, single replicates: 88.775% and 83.959% and 79.175%
[2]; 0.0025 µM
  percent in vitro complex I activity relative to solvent control, single replicates: 67.494% and 94.472% and 77.284% and 79.707%
[2]; 0.005 µM
  percent in vitro complex I activity relative to solvent control, single replicates: 85.403% and 80.690% and 74.072%
[2]; 0.013 µM
  percent in vitro complex I activity relative to solvent control, single replicates: 76.208% and 68.182% and 65.377%
[2]; 0.025 µM
  percent in vitro complex I activity relative to solvent control, single replicates: 58.176% and 57.929% and 65.135%
[2]; 0.063 µM
  percent in vitro complex I activity relative to solvent control, single replicates: 31.234% and 36.053% and 38.082%
[2]; 0.125 µM
  percent in vitro complex I activity relative to solvent control, single replicates: 19.945% and 22.520% and 28.782%
[2]; 0.313 µM
  percent in vitro complex I activity relative to solvent control, single replicates: 9.323% and 12.635% and 16.701%
[2]; 0.625 µM
  percent in vitro complex I activity relative to solvent control, single replicates: 3.544% and 2.727% and 3.100%
[2]; 1.5 µM
  percent in vitro complex I activity relative to solvent control, single replicates: 1.938%
[2]; 3 µM
  percent in vitro complex I activity relative to solvent control, single replicates: 2.450%
[2]; 7.5 µM
  percent in vitro complex I activity relative to solvent control, single replicates: 0.671%
[2]; 75 µM
  percent in vitro complex I activity relative to solvent control, single replicates: 3.643%
L1 wild-type C. elegans; [4]
  Relative Motility: 0.100

## Clc1ccccc1OCCCCn1cnc2ccccc21 [Compound 7925804]
[1]
  B. taurus: C. elegans IC50 Fold Change (Complex I IC50 ~Fold Change): 5
  Complex I IC50 ~Fold Change: 5
  IC50 Fold change: 5.00
[2]; 0.0001 µM
  percent in vitro complex I activity relative to solvent control, single replicates: 94.725% and 86.433% and 95.356%
[2]; 0.0005 µM
  percent in vitro complex I activity relative to solvent control, single replicates: 97.004% and 94.570% and 91.864%
[2]; 0.001 µM
  percent in vitro complex I activity relative to solvent control, single replicates: 100.218% and 93.097% and 105.429% and 84.942%
[2]; 0.0025 µM
  percent in vitro complex I activity relative to solvent control, single replicates: 98.014% and 106.578% and 95.293%
[2]; 0.005 µM
  percent in vitro complex I activity relative to solvent control, single replicates: 98.263% and 91.239% and 90.485%
[2]; 0.013 µM
  percent in vitro complex I activity relative to solvent control, single replicates: 98.806% and 99.730% and 94.066%
[2]; 0.025 µM
  percent in vitro complex I activity relative to solvent control, single replicates: 90.123% and 105.982% and 94.724%
[2]; 0.063 µM
  percent in vitro complex I activity relative to solvent control, single replicates: 77.781% and 84.122% and 81.033%
[2]; 0.125 µM
  percent in vitro complex I activity relative to solvent control, single replicates: 64.094% and 68.358% and 61.394%
[2]; 0.313 µM
  percent in vitro complex I activity relative to solvent control, single replicates: 45.392% and 52.240% and 38.251%
[2]; 0.625 µM
  percent in vitro complex I activity relative to solvent control, single replicates: 42.466% and 37.091% and 29.487% and 21.788%
[2]; 1.5 µM
  percent in vitro complex I activity relative to solvent control, single replicates: 19.351% and 18.310% and 16.485% and 7.719%
[2]; 3 µM
  percent in vitro complex I activity relative to solvent control, single replicates: 11.385% and 15.840% and 1.979% and 6.321%
[2]; 7.5 µM
  percent in vitro complex I activity relative to solvent control, single replicates: 6.929% and 7.267% and 7.400% and 0.000%
[2]; 15 µM
  percent in vitro complex I activity relative to solvent control, single replicates: 4.269% and 3.612% and 2.481% and 0.000%
[2]; 37.5 µM
  percent in vitro complex I activity relative to solvent control, single replicates: 5.799% and 6.015% and 0.000%
[2]; 75 µM
  percent in vitro complex I activity relative to solvent control, single replicates: 7.727% and 6.213% and 8.069% and 3.510%
L1 wild-type C. elegans; [4]
  Relative Motility: 0.180

## Cc1ccc(SCCCn2cnc3ccccc32)cc1 [Compound 7926035]
[1]
  Complex I IC50 ~Fold Change: 6.65
  IC50 Fold change: 6.65
L1 wild-type C. elegans; [5]
  Relative Motility: 0.067

## CC(C)Oc1cccc(OCCn2cnc3ccccc32)c1 [Compound 7926496]
[1]
  Complex I IC50 ~Fold Change: 0.35
  IC50 Fold change: 0.35
L1 wild-type C. elegans; [5]
  Relative Motility: 0.170

## Cn1c(Cc2ccc(Cl)cc2)nc2ccccc21 [Compound 9005666]
[1]
  B. taurus: C. elegans IC50 Fold Change (Complex I IC50 ~Fold Change): 4.03
  Complex I IC50 ~Fold Change: 4.03
  IC50 Fold change: 4.03
L1 wild-type C. elegans; [6]
  Relative Motility: 0.126

## COc1cc2c(cc1OC)C(c1ccc(-c3ccc(Cl)c(Cl)c3)o1)=NCC2 [NPD3577]
[1]
  B. taurus: C. elegans IC50 Fold Change (Complex I IC50 ~Fold Change): 0.8
[2]; 0.125 µM
  percent (%) in vitro complex I activity relative to solvent control: 97.708% and 99.291% and 93.354%
[2]; 0.313 µM
  percent (%) in vitro complex I activity relative to solvent control: 97.105% and 93.945% and 86.205%
[2]; 1.5 µM
  percent (%) in vitro complex I activity relative to solvent control: 94.111% and 90.424% and 96.415%
[2]; 3 µM
  percent (%) in vitro complex I activity relative to solvent control: 91.612% and 93.694% and 91.331%
[2]; 7.5 µM
  percent (%) in vitro complex I activity relative to solvent control: 78.739% and 77.438% and 83.930%
[2]; 15 µM
  percent (%) in vitro complex I activity relative to solvent control: 63.065% and 59.782% and 63.349%
[2]; 37.5 µM
  percent (%) in vitro complex I activity relative to solvent control: 41.693% and 41.389% and 49.686%
[2]; 75 µM
  percent (%) in vitro complex I activity relative to solvent control: 47.397% and 37.818% and 40.786%
[3]
  M. musculus: C. elegans IC50 Fold Change: 1.6

## COc1cc2c(cc1OC)C(/C=C/c1ccc(N(C)C)cc1)=NCC2 [NPD6303]
[1]
  B. taurus: C. elegans IC50 Fold Change (Complex I IC50 ~Fold Change): 2.8
[2]; 0.125 µM
  percent (%) in vitro complex I activity relative to solvent control: 87.998% and 93.858%
[2]; 0.313 µM
  percent (%) in vitro complex I activity relative to solvent control: 86.077% and 96.329%
[2]; 0.625 µM
  percent (%) in vitro complex I activity relative to solvent control: 108.371% and 107.823%
[2]; 3 µM
  percent (%) in vitro complex I activity relative to solvent control: 88.910% and 97.542%
[2]; 7.5 µM
  percent (%) in vitro complex I activity relative to solvent control: 63.062% and 70.811%
[2]; 15 µM
  percent (%) in vitro complex I activity relative to solvent control: 33.771% and 49.973% and 56.558%
[2]; 37.5 µM
  percent (%) in vitro complex I activity relative to solvent control: 10.655% and 12.339% and 24.560%
[2]; 75 µM
  percent (%) in vitro complex I activity relative to solvent control: 11.807% and 4.397% and 17.534%
[3]
  M. musculus: C. elegans IC50 Fold Change: 2.9

## c1ccc(-c2noc(CCCCc3nc4ccccc4[nH]3)n2)cc1 [STK633241]
[1]
  Complex I IC50 ~Fold Change: 0.9
  IC50 Fold change: 0.90
L1 wild-type C. elegans; [6]
  Relative Motility: 0.000

## CCn1c(C(C)c2ccc(CC(C)C)cc2)nc2ccccc21 (centres unmarked) [STK951902]
[1]
  B. taurus: C. elegans IC50 Fold Change (Complex I IC50 ~Fold Change): 6.84
  Complex I IC50 ~Fold Change: 6.84
  IC50 Fold change: 6.84
L1 wild-type C. elegans; [6]
  Relative Motility: 0.129

## CC(C)Cc1ccc(C(C)c2nc3ccccc3n2C(C)C)cc1 (centres unmarked) [STK951903]
[1]
  B. taurus: C. elegans IC50 Fold Change (Complex I IC50 ~Fold Change): 3.5
  Complex I IC50 ~Fold Change: 3.5
  IC50 Fold change: 3.50
L1 wild-type C. elegans; [6]
  Relative Motility: 0.222

## C=CCn1c(C(C)c2ccc(CC(C)C)cc2)nc2ccccc21 (centres unmarked) [STL020755]
[1]
  B. taurus: C. elegans IC50 Fold Change (Complex I IC50 ~Fold Change): 7.4
  Complex I IC50 ~Fold Change: 7.4
  IC50 Fold change: 7.40
L1 wild-type C. elegans; [6]
  Relative Motility: 0.195

## c1ccc(CCCCCCCCCCc2nc3ccccc3[nH]2)cc1 [STL442376]
[1]
  Complex I IC50 ~Fold Change: 1.42
  IC50 Fold change: 1.42
L1 wild-type C. elegans; [6]
  Relative Motility: 0.038

## Cc1ccc2nc(C(C)c3ccc(CC(C)C)cc3)[nH]c2c1 (centres unmarked) [STL482096]
[1]
  B. taurus: C. elegans IC50 Fold Change (Complex I IC50 ~Fold Change): 13.52
  Complex I IC50 ~Fold Change: 13.52
  IC50 Fold change: 13.52
L1 wild-type C. elegans; [6]
  Relative Motility: 0.106

Values joined by “and” are separate entries in the source; they are usually repeats but may differ in a detail not shown here. Equal entries are not always repeated. Where two headings read alike, the source gives them in different places.
